For one assay, the system named is RPMI-8226 cells. The assay can be described thus: Anti-proliferation assay (ATPLite, 72 h), RPMI-8226. The assay is classed as cell-based. On the technique in general: Cellular ATP, detected with luciferase, serves as a proxy for viable cell number.
Another assay has as its system MM.1R cells. The assay can be described thus: Anti-proliferation assay (ATPLite, 72 h), MM.1R. The assay is classed as cell-based.
Another assay relates to H929 cells. The experiment in a line: Anti-proliferation assay (ATPLite, 72 h), H929. The assay is classed as cell-based.
A further assay has as its system KSM-12-PE cells. The assay can be described thus: Anti-proliferation assay (ATPLite, 72 h), KSM-12-PE. The assay is classed as cell-based. The settings on record: in combination with CGS-21680.
For a further assay, the system named is OPM2 cells. The experiment in a line: Anti-proliferation assay (ATPLite, 72 h), OPM2. The assay is classed as cell-based, human. The note with it: in combination with CGS-21680; OPM-8.
Another assay concerns ANBL-6 cells. The assay can be described thus: Anti-proliferation assay (ATPLite, 72 h), ANBL-6. The assay is classed as cell-based. The settings on record: in combination with CGS-21680.

Where “and” joins values, the source holds several entries; their conditions need not be identical. Identical values can stand only once. Counter-ions that a name gives are not always drawn.

For the molecule `O=C(O)CCCc1ccc(N(CCCl)CCCl)cc1` [Chlorambucil], the results for the synergy score in the assay with RPMI-8226 cells and with MM.1R cells were 0.43 and 1.32, respectively. Regarding `CC[C@@]1(O)C(=O)OCc2c1cc1n(c2=O)Cc2cc3c(CN(C)C)c(O)ccc3nc2-1` [Topotecan hydrochloride], the synergy score in the assay on H929 cells is 1.67 and 1.185. For the molecule `CC(C)C[C@H](NC(=O)[C@H](Cc1ccccc1)NC(=O)c1cnccn1)B(O)O` [bortezomib], the figures for the synergy score with KSM-12-PE cells and in the assay on OPM2 cells were 0.36 and 1.92, respectively.

As for `N[C@@H](Cc1ccc(N(CCCl)CCCl)cc1)C(=O)O` [melphalan], the synergy score with ANBL-6 cells is 2.3.

Source of the values: patent publication US20090053168A1, “TREATMENTS OF B-CELL PROLIFERATIVE DISORDERS” (priority 2007, published 2009).
